Biological target: α-synuclein fibrils (Homo sapiens, UniProt P37840)
Assay: ThT competitive binding assay with α-synuclein fibrils

For `COc1ccc2c(c1)Nc1ncc([N+](=O)[O-])cc1O2`, the IC50 was 72.9 nM and the Ki (mean ± SEM, at least three experiments, Cheng-Prusoff from IC50) was 17.5 nM.

From patent publication US20130315825A1, “TRICYCLIC HETEROAROMATIC COMPOUNDS AS ALPHA-SYNUCLEIN LIGANDS” (Washington University, priority 2012, published 2013)
